# Yeast mating assay 2: variants of the scFv Ab-95

Reference: Engelhart et al. 2022, doi:10.1038/s41597-022-01779-4. File: FLAb, binding data.

Target: peptide PDVDLGDISGINAS, taken from heptad repeat 2 (HR2) of SARS-CoV-2 spike.

The variants keep the heavy chain, the linker and the frameworks of Ab-95 (scFv order VH, a (GGGGS)3 linker, VL).
VH: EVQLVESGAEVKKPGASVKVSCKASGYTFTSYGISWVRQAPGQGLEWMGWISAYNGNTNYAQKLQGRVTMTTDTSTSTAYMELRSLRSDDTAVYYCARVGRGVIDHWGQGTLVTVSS
VL: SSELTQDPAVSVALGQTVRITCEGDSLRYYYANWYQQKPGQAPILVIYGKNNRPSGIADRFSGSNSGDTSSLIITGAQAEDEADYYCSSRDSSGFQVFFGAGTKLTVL

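Library AAYL52 holds single substitutions and randomly drawn double and triple substitutions in the CDRs. The assay is AlphaSeq: two haploid yeast populations carry antibody and antigen on their surface. The frequency of each diploid, read from paired DNA barcodes, reflects how well the two displayed proteins bind. Each replicate has its own calibration line, from reference interactions of the BCL2 family. Mating was done three times.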

Positions count from residue 1 of the parent VL; Y30G puts G in place of Y. The read-out is the apparent dissociation constant on a log10 scale (nM): the lower, the stronger. A mean of the replicates is given; it leaves out those without a signal. "nd" marks a missing value. The strain was present, yet no cells mated with the target were sequenced in any replicate, which points to weak or no binding. The list is sorted by this average, lowest first, undetected variants last. Three control strains display no target. For library AAYL52, 28% of the pairings with them gave a signal, with a median of 3.91 and one signal in twenty below 2.90, so weak values seen in few replicates may be background. For each scFv, signals with the empty controls are counted beside the result.

1.66 (3 of 3 replicates; controls 2 of 9): Y30G+S88L.
1.86 (3 of 3 replicates; controls 1 of 9): D25M+Y30S+G94A.
1.92 (3 of 3 replicates; controls 2 of 9): N52V+S89C+F98H.
2.24 (3 of 3 replicates; controls 1 of 9): Y30D+Y31K+N33M.
2.25 (3 of 3 replicates; controls 0 of 9): S55Q+S92Y+F98W.
2.64 (2 of 3 replicates; controls 1 of 9): N52C+R53V+S55D.
2.74 (3 of 3 replicates; controls 1 of 9): L27I+N51D+S55N.
2.99 (3 of 3 replicates; controls 3 of 9): R28Y+S88A+F95T.
3.04 (3 of 3 replicates; controls 3 of 9): Y31F+S88H+F95M.
3.13 (3 of 3 replicates; controls 1 of 9): D25I+L27T+Y29T.
3.43 (1 of 3 replicates; controls 2 of 9): E23H+P54Y+S89R.
3.49 (3 of 3 replicates; controls 6 of 9): R28M+K50L.
3.69 (1 of 3 replicates; controls 1 of 9): E23Y+S26Y+V97G.
3.69 (3 of 3 replicates; controls 5 of 9): G24A+G94S+F95R.
3.71 (3 of 3 replicates; controls 1 of 9): E23A+N51A+S93Y.
3.73 (3 of 3 replicates; controls 4 of 9): L27W+Y30D+G49A.
3.78 (2 of 3 replicates; controls 1 of 9): E23K+N52C+R53G.
3.83 (2 of 3 replicates; controls 0 of 9): E23N+N51M+S89P.
3.87 (2 of 3 replicates; controls 1 of 9): N33C+D91H.
4.00 (2 of 3 replicates; controls 6 of 9): A32W+N33H+P54I.
4.03 (3 of 3 replicates; controls 6 of 9): S55C+G94Q+F98N.
4.06 (3 of 3 replicates; controls 3 of 9): N33H+R53L+F95M.
4.06 (3 of 3 replicates; controls 2 of 9): G24M+D25V+S93Q.
4.11 (2 of 3 replicates; controls 4 of 9): A32L+N52S+G94F.
4.17 (2 of 3 replicates; controls 1 of 9): L27F+S55K+R90E.
4.23 (1 of 3 replicates; controls 1 of 9): E23G+N51M+R53N.
4.33 (1 of 3 replicates; controls 4 of 9): L27R+A32S+Q96S.
4.35 (2 of 3 replicates; controls 3 of 9): N52V+S92D+G94S.
4.42 (2 of 3 replicates; controls 2 of 9): K50D+P54Q+V97L.
4.57 (3 of 3 replicates; controls 5 of 9): D25K+N33P+Q96K.
4.64 (2 of 3 replicates; controls 5 of 9): S26R+K50R+R90F.
4.72 (2 of 3 replicates; controls 4 of 9): K50I+P54H+F95A.
4.91 (1 of 3 replicates; controls 1 of 9): G24C+K50E+D91F.
nd (0 of 3 replicates; controls 2 of 9): R28W+N52R+G94V.
nd (0 of 3 replicates; controls 0 of 9): G24C+Y29V+Y31W.
nd (0 of 3 replicates; controls 0 of 9): K50S+F98W.
nd (0 of 3 replicates; controls 2 of 9): N52V+R53T+D91C.

Excerpt, the final 3 entries:

changes	mean log10 Kd (nM)	replicates with signal	signal with controls
G24C+Y29V+Y31W	nd	0 of 3	0 of 9
K50S+F98W	nd	0 of 3	0 of 9
N52V+R53T+D91C	nd	0 of 3	2 of 9